Screens (PubChem BioAssay)
GSIS activator: GLuc luminescence reporter in INS-1E cells, primary screen for activators of glucose-dependent secretion of insulin | 370,000 compounds, 0.61% hits | activation, % at 16.6 µM | INS-1E GLuc reporter insulin secretion, 2-3 h;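 active = lowest replicate activation of at least 40%, so every replicate reaches that level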;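 also: 0% = median of neutral control wells and 100% = median of IBMX positive control wells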
PDI inh: inhibitors of human protein disulfide isomerase; P07237; PDI insulin aggregation turbidity, A650, 90 min; inhibition, % at 10 µM; 350,000 compounds, 0.052% hits;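 active = mean inhibition across replicates of 30% or more, whatever share of single replicates reach that level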
Rev-erbA mod: Rev-erb alpha (human) modulation. Rev-erbα–FITC-DNA binding, fluorescence polarization, 90 min. P20393. AID 1259318. 370,000 compounds, 0.79% hits. activity, % at 10 µM;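 active = activity above about 14%, limit read from the data; passing the limit was not always enough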;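 also: 0% = DMSO wells with 35 nM protein and 100% = DMSO wells with 750 nM protein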
SMARCA2 activ: SMARCA2 function activation, primary screen; MG213 cells, MMTV-luciferase reporter, dexamethasone, overnight; activation, % at 9.1 µM; 370,000 compounds, 1% hits; in the data active = activation above about 7.8%;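 also: 0% = vehicle wells and 100% = reference activator wells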
UUG fidelity: alters start codon recognition fidelity in yeast; AID 602363; activity score, % at 18.7 µM; 350,000 tested, 0.13% active; S. cerevisiae UUG-firefly luciferase reporter, luminescence/redox ratio;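 active means replicate mean at a twofold rise or more, about +100% in these data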;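 further: firefly luciferase made from a UUG start codon reports start codon fidelity; reporter light over untreated wells divided by growth signal over untreated wells; some hits fall short of that in this replicate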
ERp5 inh: inhibitors of human ERp5 | Q15084 | ERp5 insulin aggregation, absorbance 650 nm, 90 min | inhibition, % at 9.99 µM | 350,000 compounds, 0.05% hits | AID 651711;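 active = mean replicate inhibition above about 25%, with every replicate also reaching it, limit read from the data, passing the limit was not always enough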
Active calls of the source: *; x = no result given. Compounds with a hit are over-represented: about 2.1% of the library has one in this group of screens.

SMILES	GSIS activator	PDI inh	Rev-erbA mod	SMARCA2 activ	UUG fidelity	ERp5 inh
O=C(NCc1ccco1)c1ccc2c(=O)n(CCC3=CCCCC3)c(=O)[nH]c2c1	68*	9	-3	-1	x	x
CN1C(=O)c2cc(NC(=O)Cc3cccs3)ccc2OC[C@@H]2O[C@@H](CC(=O)NCC3CC3)CC[C@H]21	-4	x	x	x	4	-6
O=C1NC(=Nc2ccccc2)S/C1=C/c1cccnc1	20	4	-2	-3	-20	3
Cc1cccc(N=C2NC(=O)/C(=C\c3cccs3)S2)c1	x	-1	2	7.9*	x	3
Cc1cccc(N=C2NC(=O)/C(=C/c3cccnc3)S2)c1	45*	-3	0	0	x	-7
O=C1NC(=Nc2cccc(O)c2)S/C1=C\c1cccnc1	20	-1	-3	7.9*	x	-1
CN(C)C(=O)c1cccc(-c2cccc(-c3nc(C(=O)N4CCOCC4)cc4c3[C@H](CCO)N([S@@](=O)C(C)(C)C)C4)c2)c1	-2	x	x	x	x	0
CCn1c(C)nc2cc(S(=O)(=O)C(F)(F)F)ccc21	99*	-6	-2	-2	-10	x
CC1(C)O[C@@H]2CC3C4CCC5=CC(=O)CCC5(C)[C@]4(F)C(O)CC3(C)[C@]2(C(=O)CCl)O1 (stereo partly drawn)	x	x	-2	x	x	x
O=C(NC1CCCCC1)C(c1ccc(F)cc1)N(Cc1ccccc1)C(=O)CN1C(=O)c2ccccc2S1(=O)=O (stereo not drawn)	111*	-12	-4	-1	-11	x
Cc1ncc(N=Nc2ccc(F)cc2)c(-c2ccc(Cl)cc2)n1	59*	6	-3	0	-8	x
COc1ccc([C@@H]2C/C=C\C[C@@H](c3ccc4c(c3)OCO4)NC(=O)[C@H](c3ccccc3)CC(=O)N2)c(OC)c1	2	x	x	x	x	x
CC1Nc2ncnc(N3CCc4ccccc4C3)c2N(Cc2ccc(Cl)cc2)C1=O (stereo not drawn)	74*	-21	x	x	-8	-1
COc1ccc(CN(C)C[C@H]2Oc3ccc(NC(=O)CCN4CCOCC4)cc3CC(=O)N([C@H](C)CO)C[C@@H]2C)cc1	5	x	x	x	x	8
CN(C)Cc1ccccc1Sc1ccc2c(c1)CCCC2	54*	11	6	1	-13	2
COc1cccc(Sc2ccccc2CN(C)C)c1	10	0	-3	-2	18	x
Oc1cccc(N2CCN(c3cccc(O)c3)CC2)c1	12	x	-7	7.8*	x	5
Nc1ccc(N2CCN(c3cccc(Cl)c3)CC2)cc1	-14	0	5	-5	x	x
CC(C)(C)c1ccc(-c2cc(NC(=O)Cc3c[nH]c4ccccc34)ccc2Nc2cccnc2)cc1	57*	x	-1	-3	x	-5
CC(C)CC(=O)Nc1nnc(SCC(=O)NC2CCCCC2)s1	22	0	-6	-2	-16	1
CC(C)CC(=O)Nc1nnc(SCC(=O)NC2CCCC2)s1	121*	-1	3	3	-9	-7
c1ccc2c(NCC3CCCO3)nc(N3CCCCC3)nc2c1 (stereo not drawn)	45*	-3	-1	1	-10	3
c1ccc2c(N3CCCCC3)nc(N3CCCC3)nc2c1	52*	3	3	-1	-1	x
c1csc(-c2nc(NCC3CCCO3)c3ccccc3n2)c1 (stereo not drawn)	41	4	-2	1	-11	-2
CC(C)(S)C(N)C(=O)O (stereo not drawn)	x	x	-4	x	x	x

Four entries picked at random from those above:
SMILES	GSIS activator	PDI inh	Rev-erbA mod	SMARCA2 activ	UUG fidelity	ERp5 inh
c1csc(-c2nc(NCC3CCCO3)c3ccccc3n2)c1 (stereo not drawn)	41	4	-2	1	-11	-2
CC1Nc2ncnc(N3CCc4ccccc4C3)c2N(Cc2ccc(Cl)cc2)C1=O (stereo not drawn)	74*	-21	x	x	-8	-1
CC(C)(S)C(N)C(=O)O (stereo not drawn)	x	x	-4	x	x	x
COc1ccc([C@@H]2C/C=C\C[C@@H](c3ccc4c(c3)OCO4)NC(=O)[C@H](c3ccccc3)CC(=O)N2)c(OC)c1	2	x	x	x	x	x

Entries of single compounds as entered above. Values in the order: GSIS activator | PDI inh | Rev-erbA mod | SMARCA2 activ | UUG fidelity | ERp5 inh
`c1ccc2c(NCC3CCCO3)nc(N3CCCCC3)nc2c1` (stereo not drawn) is entered as 45* | -3 | -1 | 1 | -10 | 3
`CN1C(=O)c2cc(NC(=O)Cc3cccs3)ccc2OC[C@@H]2O[C@@H](CC(=O)NCC3CC3)CC[C@H]21` is entered as -4 | x | x | x | 4 | -6

Other compounds:
SMILES	GSIS activator	PDI inh	Rev-erbA mod	SMARCA2 activ	UUG fidelity	ERp5 inh
CCNC[C@@H]1[C@@H](c2ccc(-c3ccc(F)cc3)cc2)[C@@H](CO)N1C(=O)C1CC1	-9	x	x	x	x	x
CCN(CC)Cc1cc(Nc2c3ccccc3nc3c4ccccc4n(C)c23)cc(CN(CC)CC)c1O	-30	6	1	41*	x	5
Oc1cccc(Nc2c3ccccc3nc3ccccc23)c1	-25	10	9	6	-2	-5
Cc1noc(C)c1NC(=O)N(C)C[C@@H]1Oc2c(NC(=O)CCCCCC(=O)Nc3ccccc3N)cccc2C(=O)N([C@@H](C)CO)C[C@H]1C	7	x	x	x	x	2
O=C(NC1CCCCC1)C1COc2ccccc2O1 (stereo not drawn)	20	-8	-2	1	-11	1
CC1CCC(NC(=O)C2COc3ccccc3O2)CC1 (stereo not drawn)	57*	-8	6	5	x	-3
C[C@H]1[C@@H](c2ccccc2)Oc2ccc(Cl)cc2S(=O)(=O)N1Cc1cccc(F)c1	8	x	6	-2	x	6
C[C@H]1[C@@H](c2ccccc2)Oc2c(Cl)cccc2S(=O)(=O)N1C	122*	x	7	-4	x	-2
O=C(C[C@@H]1C[C@@H]2c3cc(NS(=O)(=O)c4ccccc4)ccc3O[C@@H]2[C@@H](CO)O1)NC1CCCC1	-3	x	x	x	5	10
N#Cc1cccc(-c2ccc(C3[C@H]4CNC[C@@H]3N4C(=O)Nc3ccc(F)cc3)cc2)c1 (stereo partly drawn)	-32	x	x	x	x	-2
C[C@@H]1CN([C@H](C)CO)C(=O)Cc2cc(NS(=O)(=O)c3ccc(Cl)cc3)ccc2O[C@@H]1CN(C)Cc1ccc(C(=O)Nc2ccccc2N)cc1	20	x	x	x	x	1
O=C1/C(=C/c2cccc(F)c2)CSc2sccc21	43*	10	0	0	-5	x
C[C@@H]1CN([C@@H](C)CO)C(=O)c2cccc(N(C)C)c2O[C@@H]1CN(C)S(=O)(=O)c1cccs1	9	x	x	x	-9	11
N#Cc1cccc(-c2ccc([C@@H]3[C@@H]4CN(S(=O)(=O)c5ccc(-c6ccccc6)cc5)C[C@H]3N4)cc2)c1	556*	x	x	x	x	1
COc1ccc(NC(=O)Nc2ccc3c(c2)C(=O)N([C@H](C)CO)C[C@H](C)[C@H](CN(C)C(=O)Nc2ccc(F)cc2)O3)cc1	-16	x	x	x	0	0
O=C(NN=C1CCCCC1)c1cc(-c2ccccc2)n[nH]1	34	-5	-5	-3	-6	x
O=C(NN=C1CCCC1)c1cc(-c2ccccc2)n[nH]1	48*	-14	-1	0	x	x
Cc1ccc(NC(=O)CSc2nnc(-c3cccnc3)s2)cc1	42*	-3	2	-1	-10	x
O=C(CSc1nnc(-c2cccnc2)s1)Nc1ccnc2ccccc12	-30	11	2	-6	x	x
Cc1ccc(NC(=O)CSCC(=O)Nc2nnc(C)s2)cc1	47*	1	-2	-1	-1	11
CN(C)CCNc1ncnc2oc(-c3ccccc3)c(-c3ccccc3)c12	53*	12	3	1	-7	5
Cc1ccc(-c2ccc3c(c2)O[C@@H](CN(C)Cc2ccc(C(=O)O)cc2)[C@@H](C)CN([C@H](C)CO)S3(=O)=O)cc1	2	x	x	x	12	2
O=C(Cn1[nH]c(=O)c2ccccc2c1=O)OCC(=O)c1ccc(F)c(F)c1	x	5	0	-1	-11	4
O=C(Cn1[nH]c(=O)c2ccccc2c1=O)OCC(=O)c1ccc(F)cc1	53*	3	-1	1	x	-10
